According to patent US6703391B2, “Quinoxalinedione derivatives, their preparation and use” (Neurosearch A/S, priority 1992, dated 2004):

What was measured:
AMPA receptor = assay: Inhibition of [3H] AMPA binding to cortical membranes from rat brain; conditions: read-out: IC50 (μM) [3H] AMPA, inhibition of [3H] ligand binding
[1] = biological target: [3H] KA binding site (kainate receptor); assay: Inhibition of [3H] KA binding to cortical membranes from rat brain; conditions: inhibition of [3H] ligand binding
[3H] GLY binding site = [3H] GLY binding site (Rattus norvegicus, UniProt P35439); assay: Inhibition of [3H] GLY binding to cortical membranes from rat brain; conditions: read-out: IC50 (μM) [3H] GLY, inhibition of [3H] ligand binding

SMILES: CN1Cc2c(Br)cc3c([nH]c(=O)c(=O)n3O)c2C1
- IC50 (AMPA receptor): 0.94 µM
- IC50 (μM) [3H] KA [1]: 13 µM
- IC50 ([3H] GLY binding site): 3.3 µM
